The list is not random: actives were taken first. Their share in the collection is about 1.5%.
FN deposit inh: inhibitors of fibronectin matrix deposition, primary screen, AH1F cells, Alexa488-fibronectin fluorescence, plate reader | inhibition, % at 12.6 µM | AH1F fibroblasts, overnight | actives 0.086% (n = 350,000);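 active means mean inhibition across replicates of 30% or more, regardless of how many single replicates reach that level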;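 further: positive control wells lacked labelled fibronectin entirely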
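Test system: AH1F fibroblast monolayer depositing Alexa488-labelled fibronectin into matrix. Input: 10000 cells per well. Technique: fluorescence, ex 485 nm, em 525 nm. Buffer or medium: DMEM plus 2% serum, read in PBS. Timing: 1 h cell adhesion before compound, then overnight fibronectin incubation. Compound: single dose, pinned. Read-out basis: inhibition from reduced deposited-fibronectin fluorescence.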
Env fusion inh: inhibitors of HIV-1 Env-driven cell-cell fusion, primary screen, HeLa-JRFL effector, CEM21 target cells, luciferase; inhibition, % at 12.3 µM; actives 1.1% (n = 360,000);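 active means mean replicate inhibition score of at least 50 and every replicate individually at or above 50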;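 further: 0% = plate neutral controls and 100% = maraviroc near 300 nM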
Yeast UUG start: modulators of start codon recognition fidelity in yeast. activity score, % at 18.7 µM. S. cerevisiae UUG-firefly luciferase reporter, luminescence/redox ratio. 350,000 compounds, 0.13% hits;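 active means replicate mean at a twofold rise or more, about +100% in these data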;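 further: firefly luciferase made from a UUG start codon reports start codon fidelity; reporter light over untreated wells divided by growth signal over untreated wells; some hits fall short of that in this replicate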
miR122 inh: miR-122 Renilla sensor signal increase in Huh7, primary screen, miR-122 inhibitor project, cell-based, single point, plate reader; Huh7 miR-122 Renilla luciferase sensor, 48 h; neutral wells = 0, positive control = 100; activation (reporter increase), % at 12.5 µM; actives 0.3% (n = 340,000); AID 602342, 2012;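 active means mean replicate activation score at least 90 and every replicate individually at or above 90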;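 further: higher luciferase means less miR-122 activity so hits act as miR-122 inhibitors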
Cneo AK release: Cryptococcus neoformans cell lysis inducers, primary screen, AK release luminescence, single concentration; C. neoformans lysis, adenylate kinase release luminescence, 4 h; normalised: neutral wells 0, clomiphene wells 100; lysis activity, % at 15 µM; actives 0.2% (n = 360,000);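 active means mean lysis activity across replicates of at least 80%, whatever share of replicates individually reach that level; inactive means mean lysis activity below 80%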
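Test system: log-phase Cryptococcus neoformans yeast cells; Quantity: yeast cell density of 5 × 10^6 cells/mL; Buffer or medium: YPD; Doses: single compound concentration per well; Timing: 4 h at 37 °C static, read 1 h later; Measured by: AK luminescence; Read-out basis: lysis from increased AK signal; Control set: Clomiphene as positive control.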
PGC1a acetyl inh: inhibitors of PGC1a acetylation signal, primary screen, cell-based, U2OS, AlphaScreen, inhibitor mode; AlphaScreen anti-acetyl-lysine; with virally co-expressed GCN5 acetyltransferase; inhibition, % at 15.6 µM; actives 0.17% (n = 350,000);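 active means every replicate shows inhibition of at least 40%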;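 further: 0% = neutral control wells and 100% = positive control wells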
Active calls of the source: *; [ ] = another dose, or the depositor's remark.

Screening COc1cc(C)c(S(=O)(=O)Nc2ccccc2F)cc1C returned Yeast UUG start -7.2, miR122 inh 123.5*, Cneo AK release 1.0 and PGC1a acetyl inh -11.2.
CCN(CC)c1ccc(N)cc1S(=O)(=O)Nc1ccccc1OC was read as FN deposit inh 9.0, Env fusion inh 9.6, Yeast UUG start -9.9, miR122 inh 27.1, Cneo AK release -7.2 and PGC1a acetyl inh -56.6.
COc1ccccc1NS(=O)(=O)c1cc(C)ccc1C was read as FN deposit inh -8.5, Env fusion inh -73.0, Yeast UUG start -17.5, miR122 inh 140.6*, Cneo AK release -2.8 and PGC1a acetyl inh -19.3.
Screening CCN(CC)S(=O)(=O)c1ccc(Oc2ccc(S(=O)(=O)N(CC)CC)cc2)cc1 returned FN deposit inh -4.5, Env fusion inh 61.9*, Yeast UUG start -16.9, miR122 inh 0.8 and Cneo AK release -2.7.
For COc1ccc(N2CCN(Cc3csc(C)c3-c3ccc(C)cc3)CC2)cc1 the results were FN deposit inh 2.5, Env fusion inh 27.2, Yeast UUG start -4.0, miR122 inh 1.2, Cneo AK release -6.9 and PGC1a acetyl inh 9.8.
Cc1ccc2c(c1)N(CC(=O)N1CCN(c3nc4ccccc4s3)CC1)C(=O)C(C)O2 (stereo not given) was read as Env fusion inh 30.7, Yeast UUG start 7.9, miR122 inh 1.2, Cneo AK release -1.4 and PGC1a acetyl inh -14.7.
O=C(NCCS(=O)c1ccc(Cl)cc1)c1cccc(Cl)c1 (stereo not given) was read as FN deposit inh 3.0, Env fusion inh -3.4, miR122 inh -5.5 and PGC1a acetyl inh 3.5.
Screening COc1ccc(NS(=O)(=O)c2cc(C(=O)O)ccc2C)cc1 returned Yeast UUG start -20.0, miR122 inh 9.1, Cneo AK release 2.9 and PGC1a acetyl inh -5.7.
Screening COc1ccc(NS(=O)(=O)c2cc(NC(=O)c3ccc(=O)[nH]n3)ccc2C)cc1 returned FN deposit inh 8.0, Env fusion inh 10.3, Yeast UUG start -25.8, miR122 inh 166.1*, Cneo AK release -0.3 and PGC1a acetyl inh -12.8.
CN1C(=O)c2cc(NS(C)(=O)=O)ccc2OC[C@@H]2O[C@@H](CC(=O)NC3CCCCC3)CC[C@@H]21 was read as FN deposit inh -8.0, Env fusion inh -15.4[16.7 µM] and Cneo AK release 1.6.
Screening C[C@@H]1CN([C@H](C)CO)C(=O)c2cc(NS(=O)(=O)c3ccccc3)ccc2O[C@H]1CN(C)C(=O)NC1CCCCC1 returned Yeast UUG start 22.4, miR122 inh 40.5[16.7 µM], Cneo AK release 95.9* and PGC1a acetyl inh 0.9.
Screening COc1ccc(S(=O)(=O)Nc2ccc3c(c2)C(=O)N([C@H](C)CO)C[C@@H](C)[C@@H](CN(C)C(=O)Nc2ccccc2)O3)cc1 returned Env fusion inh -3.7[16.7 µM], Yeast UUG start 14.0, miR122 inh -1.7[16.7 µM], Cneo AK release 82.8* and PGC1a acetyl inh -10.6.
Screening C[C@H](CO)N1C[C@H](C)[C@@H](CN(C)C(=O)Nc2ccc3c(c2)OCO3)Oc2ccc(NS(=O)(=O)c3cccs3)cc2C1=O returned FN deposit inh -0.5, Yeast UUG start 25.9, miR122 inh 14.8[16.7 µM], Cneo AK release 99.6* and PGC1a acetyl inh -11.3.
COc1ccc(S(=O)(=O)Nc2ccc3c(c2)C(=O)N([C@H](C)CO)C[C@H](C)[C@H](CN(C)C(=O)Nc2ccccc2)OCCCC[C@H](C)O3)cc1 was read as FN deposit inh -0.3, Env fusion inh 59.8*[16.7 µM], Yeast UUG start 2.5, miR122 inh -6.6[16.7 µM], Cneo AK release 4.9 and PGC1a acetyl inh -17.5.
For Cn1c(SCC(=O)Nc2cccc(F)c2)nnc1-c1cccnc1 the results were FN deposit inh -3.5, Env fusion inh -54.2, Yeast UUG start -12.0, miR122 inh -2.4, Cneo AK release -3.0 and PGC1a acetyl inh 2.3.

Sorted by formula weight (rising): some entries from above
COc1ccccc1NS(=O)(=O)c1cc(C)ccc1C was read as FN deposit inh -8.5, Env fusion inh -73.0, Yeast UUG start -17.5, miR122 inh 140.6*, Cneo AK release -2.8 and PGC1a acetyl inh -19.3.
Screening C[C@@H]1CN([C@H](C)CO)C(=O)c2cc(NS(=O)(=O)c3ccccc3)ccc2O[C@H]1CN(C)C(=O)NC1CCCCC1 returned Yeast UUG start 22.4, miR122 inh 40.5[16.7 µM], Cneo AK release 95.9* and PGC1a acetyl inh 0.9.
Screening C[C@H](CO)N1C[C@H](C)[C@@H](CN(C)C(=O)Nc2ccc3c(c2)OCO3)Oc2ccc(NS(=O)(=O)c3cccs3)cc2C1=O returned FN deposit inh -0.5, Yeast UUG start 25.9, miR122 inh 14.8[16.7 µM], Cneo AK release 99.6* and PGC1a acetyl inh -11.3.

High-throughput results from PubChem BioAssay.
